Measured values from PubChem BioAssay AID483 (Columbia University Molecular Screening Center, 2006).
The entries are a selection whose mix differs from that of the whole data set. Some of these compounds have results that are not shown, active ones among them. Active and inactive are the calls of the source.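 The calls were made as follows: active = visual image review flags a hit and inhibition of aggregation exceeds 20%; inconclusive = visual hit but inhibition at or below 20%; inactive = no hit on visual image review.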

Test: inhibitors of mutant huntingtin aggregation, primary screen, imaging, exon1htt(103Q)mCFP cells, high-content imaging (AID 483);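 also: compound exposure lasted 3 days before fixation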
Conditions: exon1htt(103Q)mCFP cell line, aggregate imaging; at 2 µM; active compounds read high

SMILES | inhibition of aggregation
O=C(OC1CN2CCC1CC2)C(CO)(c1ccccc1)c1ccccc1 (stereo unspecified) | inactive: -7.7%
